# Source: paper PMC8081378 (Mutagenesis, 2019)
# Test system: EpiDerm™ skin tissues
# Experiment: reconstructed skin micronucleus
# Format: cell-based, human
smiles,measurement,setting,value
"CO[C@@]12[C@H](COC(N)=O)C3=C(C(=O)C(C)=C(N)C3=O)N1C[C@@H]1N[C@@H]12 [MMC, mitomycin C]",MN formation (% MN-BN),"positive control 0.05 µg/cm^2, three treatments over 72 h",highly significant increases in MN formation
same,MN formation (% MN-BN),"positive control 0.05 µg/cm^2, two treatments over 48 h",highly significant increases in MN formation
